Data: PubChem BioAssay (NCI)
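Cells were grown in 96-well plates and exposed to each compound for 48 hours at five concentrations; endpoints were interpolated linearly between bracketing concentrations, or set to the highest concentration if not reached. TGI is the concentration that stops growth completely.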

Assays:
Assay in all cases: NCI anticancer screen, dose series, 48 h
DMS 273 small cell lung = tested on: DMS 273 small cell lung
HT29 colon = tested on: HT29 colon
K-562 leukemia = tested on: K-562 leukemia
A549 NSCLC = tested on: A549 NSCLC
DMS 114 small cell lung = tested on: DMS 114 small cell lung
MOLT-4 leukemia = tested on: MOLT-4 leukemia
IGROV1 ovarian = tested on: IGROV1 ovarian
OVCAR-8 ovarian = tested on: OVCAR-8 ovarian
HOP-62 NSCLC = tested on: HOP-62 NSCLC
SNB-75 CNS = tested on: SNB-75 CNS
LXFL 529 NSCLC = tested on: LXFL 529 NSCLC
CCRF-CEM leukemia = tested on: CCRF-CEM leukemia
HCC-2998 colon = tested on: HCC-2998 colon
XF 498 CNS = tested on: XF 498 CNS
SF-268 CNS = tested on: SF-268 CNS
HOP-92 NSCLC = tested on: HOP-92 NSCLC
NCI-H226 lung = tested on: NCI-H226 lung
OVCAR-3 ovarian = tested on: OVCAR-3 ovarian
UO-31 renal = tested on: UO-31 renal
NCI-H522 lung = tested on: NCI-H522 lung
NCI-H23 lung = tested on: NCI-H23 lung
SNB-19 CNS = tested on: SNB-19 CNS
KM12 colon = tested on: KM12 colon
CAKI-1 renal = tested on: CAKI-1 renal
U251 CNS = tested on: U251 CNS
COLO 205 colon = tested on: COLO 205 colon
SW-620 colon = tested on: SW-620 colon
M19-MEL melanoma = tested on: M19-MEL melanoma
NCI-H460 lung = tested on: NCI-H460 lung
TK-10 renal = tested on: TK-10 renal
786-0 renal = tested on: 786-0 renal
ACHN renal = tested on: ACHN renal
MALME-3M melanoma = tested on: MALME-3M melanoma
SK-MEL-28 melanoma = tested on: SK-MEL-28 melanoma
SR leukemia = tested on: SR leukemia
OVCAR-4 ovarian = tested on: OVCAR-4 ovarian
RPMI-8226 leukemia = tested on: RPMI-8226 leukemia
SK-MEL-5 melanoma = tested on: SK-MEL-5 melanoma
SK-MEL-2 melanoma = tested on: SK-MEL-2 melanoma
M14 melanoma = tested on: M14 melanoma
UACC-257 melanoma = tested on: UACC-257 melanoma
UACC-62 melanoma = tested on: UACC-62 melanoma
HL-60(TB) leukemia = tested on: HL-60(TB) leukemia
SF-539 CNS = tested on: SF-539 CNS
KM20L2 colon = tested on: KM20L2 colon
SF-295 CNS = tested on: SF-295 CNS
HCT-15 colon = tested on: HCT-15 colon
OVCAR-5 ovarian = tested on: OVCAR-5 ovarian
HCT-116 colon = tested on: HCT-116 colon
NCI-H322M lung = tested on: NCI-H322M lung

Measured: TGI

O=P(Nc1ccccn1)(N1CC1)N1CC1
> 100 µM: DMS 273 small cell lung | HT29 colon | K-562 leukemia | A549 NSCLC | DMS 114 small cell lung | MOLT-4 leukemia | IGROV1 ovarian | OVCAR-8 ovarian | HOP-62 NSCLC | SNB-75 CNS | LXFL 529 NSCLC | CCRF-CEM leukemia | HCC-2998 colon | XF 498 CNS | SF-268 CNS | HOP-92 NSCLC | NCI-H226 lung | OVCAR-3 ovarian | UO-31 renal | NCI-H522 lung | NCI-H23 lung | SNB-19 CNS | KM12 colon | CAKI-1 renal | U251 CNS | COLO 205 colon | SW-620 colon | M19-MEL melanoma | NCI-H460 lung | TK-10 renal | 786-0 renal | ACHN renal | MALME-3M melanoma | SK-MEL-28 melanoma | SR leukemia | OVCAR-4 ovarian | RPMI-8226 leukemia | SK-MEL-5 melanoma | SK-MEL-2 melanoma | M14 melanoma | UACC-257 melanoma | UACC-62 melanoma | HL-60(TB) leukemia | SF-539 CNS | KM20L2 colon | SF-295 CNS | HCT-15 colon | OVCAR-5 ovarian | HCT-116 colon | NCI-H322M lung
